The numbers were not newly measured in US7429557B2, “Replacement solvents having improved properties and methods of using the same” (Mainstream Engineering Corporation, priority 2005, dated 2008), which cites them from elsewhere.

For this series the following is noted: reported; cited from earlier work.

Regarding `FC(F)(Cl)C(F)(Cl)Cl` [CFC-113, 1,1,2-trichloro-1,2,2-trifluoroethane], the Ames test entry was “negative”.
